# scFv variants of Ab-91 (heavy chain) against a SARS-CoV-2 spike peptide

Binding partner: SARS-CoV-2 spike HR2 peptide, sequence PDVDLGDISGINAS.

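The parent was found by panning a naive human phage display library on the peptide. In library AAYL51, one, two or three CDR residues were substituted; doubles and triples were drawn at random. The assay is AlphaSeq: two haploid yeast populations carry antibody and antigen on their surface. After mating in shaken culture at 30 °C for 16 h, diploids were selected and their barcode pairs sequenced. A regression on co-assayed BCL2-family reference pairs converts the normalised counts of each replicate to an apparent Kd. The assay was run in three technical replicates.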

Each scFv is VL, a 15-residue (Gly4Ser)3 linker, VH, as in the parent Ab-91, and differs from it in the CDRs of the heavy chain only.
VL: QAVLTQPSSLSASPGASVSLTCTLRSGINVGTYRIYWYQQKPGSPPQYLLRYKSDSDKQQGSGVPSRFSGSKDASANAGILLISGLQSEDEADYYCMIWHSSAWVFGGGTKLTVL
VH: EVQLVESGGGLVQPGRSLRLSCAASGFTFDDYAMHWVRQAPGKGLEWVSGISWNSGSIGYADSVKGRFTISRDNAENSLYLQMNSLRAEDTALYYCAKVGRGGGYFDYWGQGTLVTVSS

Substitutions are numbered in sequence along the VH above, starting at 1 (not Kabat).
Affinities are written as log10 Kd with Kd in nM; a lower number is a better binder.
A pair that was not seen in that replicate is written "nd"; this usually means weak binding, but a binder can also be missed.
Nonspecific signal, from three strains lacking the peptide, appeared in 21% of pairings of library AAYL51, centred on 4.54 (5% of these signals below 3.26); values are not corrected for it. For each scFv, signals with the empty controls are counted beside the result.

With T28E+A61V the result was 1.84, 1.70, 1.69 (controls 0 of 9).
With A33I+A61E+D107H the result was 4.96, nd, nd (controls 0 of 9).
With A33W+S52M+S63T the result was 5.45, nd, nd (controls 1 of 9).
With I51T+Y105P+Y108A the result was 3.20, nd, nd (controls 1 of 9).
With T28M+F29S+V64P the result was nd, nd, nd (controls 1 of 9).
With D30A+I51W+G104I the result was nd, nd, nd (controls 2 of 9).
With G50C+N54T+R101Q the result was 5.06, 4.79, nd (controls 3 of 9).
With Y32E+S57H the result was 4.69, nd, nd (controls 2 of 9).
With M34K+I51L+S57W the result was nd, 5.12, nd (controls 1 of 9).
With D30E+H35D+D62P the result was nd, nd, 3.65 (controls 2 of 9).
With T28K+G102D+G104K the result was 4.80, 4.73, 5.85 (controls 8 of 9).
With F29K+S55L+Y108F the result was nd, nd, nd (controls 0 of 9).
With F27L+Y32V+N54I the result was nd, nd, nd (controls 0 of 9).
With R101D+G104M the result was 4.87, 5.81, nd (controls 1 of 9).
With N54V+I58M+Y105A the result was nd, 5.93, nd (controls 4 of 9).
With I58D+V99H+G102V the result was nd, nd, nd (controls 3 of 9).
With A33Q+Y60E+Y105G the result was 5.73, 6.23, nd (controls 3 of 9).
With G59H+D62V+G102C the result was nd, nd, nd (controls 2 of 9).
With S52K+S55D+V64H the result was nd, nd, nd (controls 2 of 9).
With A33D+V99N+G100R the result was 4.18, 4.67, nd (controls 5 of 9).
With G50T+S57P the result was nd, nd, 2.32 (controls 1 of 9).
With I51P+V64K+V99L the result was nd, nd, nd (controls 2 of 9).
With T28V+N54C+V64S the result was nd, nd, nd (controls 0 of 9).
With G50N+S57G+G102W the result was 4.30, nd, nd (controls 3 of 9).
With I58L+R101K+G102V the result was 2.32, 2.38, 1.95 (controls 2 of 9).
With H35I+G50S+N54A the result was nd, nd, nd (controls 1 of 9).
With S52V+G59P+D107K the result was 5.26, 5.78, 5.54 (controls 4 of 9).
With D31G+G50M+D107F the result was nd, nd, nd (controls 0 of 9).
With F29S+I58E+K65C the result was nd, nd, nd (controls 2 of 9).
With T28W+G56D+K65E the result was 0.85, 0.87, 0.31 (controls 6 of 9).
With H35Q+N54I+A61V the result was 5.80, nd, nd (controls 2 of 9).
With F27C+N54F+A61G the result was nd, nd, nd (controls 0 of 9).
With A33Y+A61D+D62K the result was nd, nd, 2.37 (controls 1 of 9).
With Y32W+G100V+Y108L the result was nd, nd, nd (controls 1 of 9).
With D30T+D31F+Y105K the result was nd, nd, 4.54 (controls 1 of 9).
With S63H+K65M+D107C the result was nd, nd, nd (controls 0 of 9).
With G56Y+K65S the result was nd, nd, nd (controls 0 of 9).
With M34F+V64K+D107L the result was nd, nd, nd (controls 1 of 9).

The closing 3 entries, repeated:

changes,"replicates, log10 nM",empty controls
S63H+K65M+D107C,"nd, nd, nd",0/9
G56Y+K65S,"nd, nd, nd",0/9
M34F+V64K+D107L,"nd, nd, nd",1/9

Data: MIT Lincoln Laboratory AlphaSeq set, Engelhart et al. 2022, doi:10.1038/s41597-022-01779-4, as distributed in FLAb.